This note sets out measurements from US11124550B2, “Proteinaceous molecules and methods of use” (priority 2015, dated 2021).

The chains behind the UniProt entries cited, without tags or fusion partners.
UniProt Q99250, whole entry: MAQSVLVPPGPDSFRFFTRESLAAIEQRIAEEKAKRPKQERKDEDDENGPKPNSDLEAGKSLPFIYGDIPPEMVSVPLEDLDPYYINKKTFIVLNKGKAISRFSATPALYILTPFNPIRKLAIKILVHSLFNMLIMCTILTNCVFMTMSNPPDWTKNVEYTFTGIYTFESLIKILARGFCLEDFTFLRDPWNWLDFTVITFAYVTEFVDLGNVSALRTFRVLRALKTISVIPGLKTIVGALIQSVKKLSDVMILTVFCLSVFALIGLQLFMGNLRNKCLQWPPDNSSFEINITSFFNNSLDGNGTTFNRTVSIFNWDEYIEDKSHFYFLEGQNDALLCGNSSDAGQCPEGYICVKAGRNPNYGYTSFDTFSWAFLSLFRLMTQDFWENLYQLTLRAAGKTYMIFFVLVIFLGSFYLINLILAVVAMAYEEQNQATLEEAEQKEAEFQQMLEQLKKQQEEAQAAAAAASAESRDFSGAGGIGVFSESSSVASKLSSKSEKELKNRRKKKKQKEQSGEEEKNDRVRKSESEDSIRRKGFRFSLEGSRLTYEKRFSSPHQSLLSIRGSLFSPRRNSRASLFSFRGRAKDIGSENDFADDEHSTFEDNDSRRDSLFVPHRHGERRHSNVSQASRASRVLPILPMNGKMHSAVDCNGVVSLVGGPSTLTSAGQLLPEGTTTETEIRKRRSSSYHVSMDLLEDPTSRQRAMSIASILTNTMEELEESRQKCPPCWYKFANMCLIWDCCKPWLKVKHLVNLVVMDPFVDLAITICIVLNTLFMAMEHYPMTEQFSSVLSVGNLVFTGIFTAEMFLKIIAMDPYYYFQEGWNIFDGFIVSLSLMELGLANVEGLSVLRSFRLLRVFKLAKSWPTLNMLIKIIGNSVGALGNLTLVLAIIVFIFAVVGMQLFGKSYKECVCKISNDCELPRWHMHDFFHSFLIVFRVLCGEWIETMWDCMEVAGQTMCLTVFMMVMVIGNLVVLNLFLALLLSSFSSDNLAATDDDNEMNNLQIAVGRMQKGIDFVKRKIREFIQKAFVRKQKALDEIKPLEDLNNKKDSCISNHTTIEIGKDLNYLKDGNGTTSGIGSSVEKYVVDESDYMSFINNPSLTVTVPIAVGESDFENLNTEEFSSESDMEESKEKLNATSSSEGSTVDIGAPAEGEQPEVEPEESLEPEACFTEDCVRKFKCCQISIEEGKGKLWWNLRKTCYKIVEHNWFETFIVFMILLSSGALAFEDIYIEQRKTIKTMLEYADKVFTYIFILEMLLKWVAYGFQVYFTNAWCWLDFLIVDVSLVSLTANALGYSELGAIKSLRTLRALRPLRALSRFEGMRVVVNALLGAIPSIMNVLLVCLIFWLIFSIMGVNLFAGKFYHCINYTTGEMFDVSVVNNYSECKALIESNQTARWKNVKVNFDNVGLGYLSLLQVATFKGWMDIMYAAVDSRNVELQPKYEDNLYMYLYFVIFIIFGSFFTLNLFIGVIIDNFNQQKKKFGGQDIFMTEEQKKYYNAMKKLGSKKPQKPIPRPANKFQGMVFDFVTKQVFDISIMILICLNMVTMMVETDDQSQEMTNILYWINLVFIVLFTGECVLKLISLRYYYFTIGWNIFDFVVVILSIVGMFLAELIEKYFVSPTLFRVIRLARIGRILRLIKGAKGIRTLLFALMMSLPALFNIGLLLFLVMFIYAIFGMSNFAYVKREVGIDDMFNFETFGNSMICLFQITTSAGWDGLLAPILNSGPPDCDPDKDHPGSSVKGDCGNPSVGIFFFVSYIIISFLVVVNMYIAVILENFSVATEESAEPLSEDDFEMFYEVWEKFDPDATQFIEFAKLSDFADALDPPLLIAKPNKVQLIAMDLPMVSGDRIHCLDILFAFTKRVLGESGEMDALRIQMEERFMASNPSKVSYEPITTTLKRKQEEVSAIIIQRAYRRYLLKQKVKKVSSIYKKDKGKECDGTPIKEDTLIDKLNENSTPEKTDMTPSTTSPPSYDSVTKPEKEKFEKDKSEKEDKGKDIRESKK
UniProt Q15858, whole entry: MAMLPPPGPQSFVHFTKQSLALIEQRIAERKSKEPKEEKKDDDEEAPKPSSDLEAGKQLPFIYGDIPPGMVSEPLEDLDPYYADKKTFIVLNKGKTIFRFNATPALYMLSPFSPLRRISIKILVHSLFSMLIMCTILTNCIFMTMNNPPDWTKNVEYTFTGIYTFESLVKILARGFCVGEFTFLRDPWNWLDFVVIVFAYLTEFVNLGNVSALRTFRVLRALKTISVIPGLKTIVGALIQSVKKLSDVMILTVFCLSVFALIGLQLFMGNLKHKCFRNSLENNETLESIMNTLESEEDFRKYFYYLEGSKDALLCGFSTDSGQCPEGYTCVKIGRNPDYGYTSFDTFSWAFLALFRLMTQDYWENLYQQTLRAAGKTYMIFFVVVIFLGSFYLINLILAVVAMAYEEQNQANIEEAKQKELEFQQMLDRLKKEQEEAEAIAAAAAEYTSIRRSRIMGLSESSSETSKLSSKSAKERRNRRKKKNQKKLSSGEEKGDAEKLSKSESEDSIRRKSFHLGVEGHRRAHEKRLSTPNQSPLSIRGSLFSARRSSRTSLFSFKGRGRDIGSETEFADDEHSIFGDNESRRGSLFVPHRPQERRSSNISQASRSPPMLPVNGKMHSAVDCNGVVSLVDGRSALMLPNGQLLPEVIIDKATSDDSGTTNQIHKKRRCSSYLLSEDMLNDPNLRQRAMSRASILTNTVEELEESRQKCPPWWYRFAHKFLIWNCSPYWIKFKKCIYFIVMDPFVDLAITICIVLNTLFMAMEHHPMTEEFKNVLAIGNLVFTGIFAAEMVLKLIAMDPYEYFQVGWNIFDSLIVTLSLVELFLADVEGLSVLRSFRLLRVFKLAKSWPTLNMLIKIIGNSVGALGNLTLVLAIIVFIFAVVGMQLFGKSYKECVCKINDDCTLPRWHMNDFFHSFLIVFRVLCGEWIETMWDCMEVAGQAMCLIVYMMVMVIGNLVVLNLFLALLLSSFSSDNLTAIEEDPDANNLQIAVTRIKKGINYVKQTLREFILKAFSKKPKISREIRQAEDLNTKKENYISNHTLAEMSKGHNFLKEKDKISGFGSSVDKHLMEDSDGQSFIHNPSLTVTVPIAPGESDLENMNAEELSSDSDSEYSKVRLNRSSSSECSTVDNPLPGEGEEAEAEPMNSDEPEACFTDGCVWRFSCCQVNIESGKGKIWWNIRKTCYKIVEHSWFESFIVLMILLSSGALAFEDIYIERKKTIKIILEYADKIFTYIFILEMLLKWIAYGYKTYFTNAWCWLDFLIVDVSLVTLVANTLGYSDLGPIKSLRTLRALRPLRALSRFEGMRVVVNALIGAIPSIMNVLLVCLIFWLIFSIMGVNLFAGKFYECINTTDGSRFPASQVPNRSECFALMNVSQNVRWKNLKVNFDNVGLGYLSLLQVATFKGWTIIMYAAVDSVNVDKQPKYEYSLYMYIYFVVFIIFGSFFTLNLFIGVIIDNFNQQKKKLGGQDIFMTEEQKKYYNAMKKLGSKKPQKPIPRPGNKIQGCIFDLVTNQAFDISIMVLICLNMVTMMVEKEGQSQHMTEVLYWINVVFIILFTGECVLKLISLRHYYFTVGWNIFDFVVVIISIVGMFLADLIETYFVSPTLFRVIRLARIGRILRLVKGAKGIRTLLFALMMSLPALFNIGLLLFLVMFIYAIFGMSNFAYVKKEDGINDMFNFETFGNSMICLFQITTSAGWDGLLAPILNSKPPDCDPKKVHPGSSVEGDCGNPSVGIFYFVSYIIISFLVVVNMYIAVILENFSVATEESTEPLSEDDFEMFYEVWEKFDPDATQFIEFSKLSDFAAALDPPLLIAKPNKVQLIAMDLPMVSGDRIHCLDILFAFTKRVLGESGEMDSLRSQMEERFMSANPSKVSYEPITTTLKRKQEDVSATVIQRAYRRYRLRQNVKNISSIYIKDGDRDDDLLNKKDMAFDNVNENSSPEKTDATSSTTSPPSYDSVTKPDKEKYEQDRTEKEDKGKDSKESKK

The subject of assay [1] is TG or DRG neurons. The assay is described as follows: Calcium imaging of cultured somatosensory neurons (Fura-2). The class given is cell-based, rat. Particulars: application of synthetic Hm1a.
Assay [2] deals with T1, hNav1.2 (Homo sapiens, UniProt Q99250).
T1 construct: expressed in transfected cells; host or cells: HEK293T
The assay is described as follows: Automated planar whole-cell patch clamp (Patchliner), hSCN2A HEK293T cells. Particulars: concentrations tested up to 50 nM. The assay is classed as cell-based. An excerpt: (§1) To characterize the functional activity of Hm1a and Hm1b, HEK293T cells stably transfected with either hSCN1A, hSCN2A, hSCN3A, hSCN5A, hSCN9A or hSCN10A as well as CHO cells stably transfected with hSCN4A or hSCN8A were used for whole-cell patch-clamp analysis with a high throughput automated planar patch-clamp technology.
(§2) HEK293T cells stably transfected with either hSCN1A, hSCN2A, hSCN3A, hSCN5A, hSCN9A or hSCN10A were maintained in Dulbecco's Modified Eagle's Medium Nutrient Mixture F-12 (Invitrogen, Carlsbad, Calif., USA) supplemented with 10% (v/v) foetal bovine serum (FBS) (Invitrogen), 0.9% Penicillin/Streptomycin (P/S) solution and 100 μg/mL hygromycin or 100 μg/mL neomycin. CHO cells stably transfected with hSCN4A or hSCN8A were maintained in Ham's F12 Nutrient Mixture (Invitrogen, Carlsbad, Calif., USA) supplemented with 10% (v/v) FBS, 0.9% P/S solution and 100 μg/mL hygromycin. All cells were grown in T75 flasks (BD Biosciences, San Jose, Calif., USA) to ˜70% confluency.
(§3) Patch-clamp recordings were conducted in the whole-cell configuration using a Patchliner® (Nanion Technologies, Munich, Germany). […]
On the technique in general: The patch-clamp technique gives a direct electrical read-out from membranes.

The target of assay [3] is T2, hNav1.7 (Homo sapiens, UniProt Q15858).
T2 construct: expressed in transfected cells; host or cells: HEK293T
The assay is described as follows: Automated planar whole-cell patch clamp (Patchliner), hSCN9A HEK293T cells. The assay is classed as cell-based. Particulars: concentrations tested up to 50 nM.
From the text: as §1, §2, §3

Assay [4] deals with sodium channel currents in TG neurons. The assay is described as follows: Whole-cell patch clamp / current clamp of dissociated trigeminal neurons. The assay is classed as cell-based, mouse. As to the method: Trigeminal ganglia were dissected from newborn (P0-P3) C57BL/6 mice and dissociated with collagenase P (Sigma) and 0.25% Trypsin (15 minutes each). Cells were then triturated with a plastic pipette and cultured for >12 hours before electrophysiological recording. Whole-cell patch clamp recordings were performed manually on dissociated neurons using an Axopatch 200B amplifier (Axon instruments). Signals were digitized using a Digidata 1440A (Axon Instruments) and recorded using pClamp software. External solutions were 150 mM NaCl, 2.8 mM KCl, 1 mM MgCl2, 1 mM CaCl2), pH adjusted to 7.4 using NaOH. Internal solutions contained 130 mM K-gluconate, 15 mM KCl, 4 mM NaCl, 0.5 mM CaCl2, 1 mM EGTA, 10 mM HEPES, pH adjusted to 7.2 using NaOH. Inward sodium channel currents were elicited by stepping the membrane voltage from −90 mV to −30 mV.

Each structure is given as a SMILES string.

For the compound `CC(C)C[C@@H]1NC(=O)[C@H](Cc2ccc(O)cc2)NC(=O)[C@H](CCCNC(=N)N)NC(=O)[C@@H](NC(=O)[C@@H](N)CCC(=O)O)CSSC[C@@H]2NC(=O)[C@@H]3CSSC[C@@H](C(=O)N[C@@H](C)C(=O)N[C@@H](Cc4c[nH]c5ccccc45)C(=O)N[C@@H](CC(=O)O)C(=O)NCC(=O)N[C@H](C(=O)N[C@@H](Cc4ccccc4)C(=O)N[C@@H](CO)C(=O)O)[C@@H](C)O)NC(=O)[C@H](Cc4ccc(O)cc4)NC(=O)[C@H](CCCCN)NC(=O)[C@H](Cc4c[nH]c5ccccc45)NC(=O)[C@H](CC(=O)O)NC(=O)[C@H](CO)NC(=O)[C@H](CCCNC(=N)N)NC(=O)[C@H](CSSC[C@H](NC(=O)CNC(=O)CNC(=O)[C@H](Cc4ccccc4)NC1=O)C(=O)N[C@@H](CO)C(=O)N[C@@H](CO)C(=O)N[C@@H]([C@@H](C)O)C(=O)N[C@@H](CO)C(=O)N[C@@H](CC(=O)O)C(=O)N3)NC(=O)[C@H](CO)NC(=O)[C@H](CC(C)C)NC(=O)[C@H](Cc1c[nH]cn1)NC(=O)[C@H](CCCCN)NC2=O` [Hm1a], in assay [1], the “calcium responses in TG neurons” value was “triggered calcium responses”. Besides, the “effect on hNav1.2 current” value in assay [2] was “no effect”. In addition, the “effect on hNav1.7 current” value in assay [3] is given as “no effect”. Also, the “resting membrane potential Vm” value in assay [4] (after Hm1a, before Hm1a −55±6 mV, current clamp) is listed as −56±6 mV. In addition, the action potential waveform entry in assay [4] (current clamp) is “prolonged”. For the same compound, in assay [4] (following a 20 pA current injection, Hm1a 500 nM), the spike frequency entry was “robustly enhanced”. In assay [4] (whole-cell patch-clamp, TG neurons), the sodium channel inactivation result was “robustly inhibited sodium channel inactivation”.
